Assay results: patent US9408850B2, “Substituted indazole derivatives active as kinase inhibitors” (NERVIANO MEDICAL SCIENCES S.R.L., priority 2011, dated 2016)

Amino acid sequences for entries named in this document (tags omitted). Residues count along the entry.
UniProt P10721, 544-976: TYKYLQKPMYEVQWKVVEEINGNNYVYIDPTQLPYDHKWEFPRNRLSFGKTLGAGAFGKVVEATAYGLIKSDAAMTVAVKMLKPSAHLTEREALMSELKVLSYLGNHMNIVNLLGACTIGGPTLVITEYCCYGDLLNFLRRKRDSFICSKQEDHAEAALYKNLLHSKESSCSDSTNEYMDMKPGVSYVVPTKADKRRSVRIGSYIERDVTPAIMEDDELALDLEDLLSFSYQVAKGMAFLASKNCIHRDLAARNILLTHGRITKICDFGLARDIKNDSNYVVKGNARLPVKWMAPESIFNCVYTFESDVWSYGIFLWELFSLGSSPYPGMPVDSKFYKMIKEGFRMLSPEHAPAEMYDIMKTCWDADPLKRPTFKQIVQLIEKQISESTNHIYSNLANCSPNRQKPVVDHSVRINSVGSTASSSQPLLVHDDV
UniProt P36888, 564-993: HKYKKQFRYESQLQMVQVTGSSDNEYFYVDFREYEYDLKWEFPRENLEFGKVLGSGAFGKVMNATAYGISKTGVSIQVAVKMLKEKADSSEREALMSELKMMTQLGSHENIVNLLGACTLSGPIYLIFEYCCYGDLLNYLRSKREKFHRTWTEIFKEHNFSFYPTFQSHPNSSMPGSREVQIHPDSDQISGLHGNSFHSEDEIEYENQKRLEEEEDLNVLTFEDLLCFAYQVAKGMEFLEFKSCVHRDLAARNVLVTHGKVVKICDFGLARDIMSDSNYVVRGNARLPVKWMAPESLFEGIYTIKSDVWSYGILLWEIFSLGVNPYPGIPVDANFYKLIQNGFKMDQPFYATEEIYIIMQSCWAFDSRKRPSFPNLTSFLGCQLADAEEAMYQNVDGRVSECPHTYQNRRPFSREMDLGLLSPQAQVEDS

How the values were obtained:
[1] = molecular target: KIT cytoplasmic domain (GST fused protein) (Homo sapiens (Human), UniProt P10721); assay: Biochemical assay for inhibitors of KIT kinase activity; details: 4 nM pre activated enzyme, 4.4 microM ATP, 60 minutes at r.t.
Protocol: KIT cytoplasmic domain (aa 544-976end of the 976 aminoacid long full length sequence, accession number P10721 of UniProtKB/Swiss-Prot database) was cloned into pVL vector for expression in insect cells through the baculovirus system. The GST-KIT cytoplasmic domain has been expressed in Sf21 cells infected for 66 hrs at 27° C. The recombinant protein has been purified by affinity on GSH-sepharose and eluted with glutathione. […] • i. General Principle-A specific peptidic substrate was trans-phosphorylated by the kinase in the presence of ATP traced with 33Pγ-ATP. At the end of the phosphorylation reaction, the not reacted ATP, cold and radioactive, was captured by an excess of dowex ion exchange resin that eventually settled by gravity to the bottom of the reaction plate. The supernatant was subsequently withdrawn and transferred into a counting plate that was then evaluated by β-counting. • ii. Dowex resin preparation-500 g of wet resin (SIGMA, custom prepared resin DOWEX 1×8 200-400 mesh, 2.5 Kg) were weighed out and diluted to 2 L in 150 mM sodium formate, pH 3.00. The resin was allowed to settle down overnight and then the supernatant was discarded. […] Data Fitting-Data were analyzed by an internally customized version of the SW package “Assay Explorer” that provided sigmoidal fitting of the ten-dilutions curves for IC50 determination in the secondary assays/hit confirmation routines. […]

[2] = molecular target: FLT3 cytoplasmic domain (GST fused protein) (Homo sapiens (Human), UniProt P36888); assay: Biochemical assay for inhibitors of FLT3 kinase activity; details: 2 nM pre activated enzyme, 254 microM ATP, 60 minutes at r.t.
Protocol: FLT3 cytoplasmic domain (aa 564-993end of the 993 aminoacid long full length sequence, accession number P36888 of UniProtKB/Swiss-Prot. database) was amplified by PCR starting from a testis cDNA library and then cloned into pVL vector for expression in insect cells through the baculovirus system. The GST-FLT3 cytoplasmic domain has been expressed in Sf21 cells infected for 72 hours at 27° C. The recombinant protein has been purified by affinity on GSH-sepharose and eluted with glutathione. A further purification step has been performed on heparine sepharose. […] • i. General Principle-A specific peptidic substrate was trans-phosphorylated by the kinase in the presence of ATP traced with 33Pγ-ATP. At the end of the phosphorylation reaction, the not reacted ATP, cold and radioactive, was captured by an excess of dowex ion exchange resin that eventually settled by gravity to the bottom of the reaction plate. The supernatant was subsequently withdrawn and transferred into a counting plate that was then evaluated by β-counting. • ii. […] Data Fitting-Data were analyzed by an internally customized version of the SW package “Assay Explorer” that provided sigmoidal fitting of the ten-dilutions curves for IC50 determination in the secondary assays/hit confirmation routines. […]

CN1CCC(N(C)c2ccc(C(=O)Nc3n[nH]c4cc(OCCOCc5ccccc5)ccc34)cc2)CC1 [Cpd. 23, N-[6-(2-Benzyloxy-ethoxy)-1H-indazol-3-yl]-4-[methyl-(1-methyl-piperidin-4-yl)-amino]-benzamide]
IC50 [1]: 109 nM
IC50 [2]: < 50 nM
